# Biological target: Urease ous Canavalia ensiformis (Jack bean) (Canavalia ensiformis, UniProt P07374)
# Assay: Screening of urease inhibition (phenol red colour change, 96-well plate reader, 560 nm)
# Conditions: FRM 0,1% final, urea 1g/L, urease 2 U/mL, PBS 1x, 24°C, 1 hour, printed as fraction normed to NBPT
structure (smiles),measurement,value
COc1ccc2ccccc2c1,"inhibition rate (normed, based on NBPT)",32.5%
